Earlier results as cited in patent publication US11325944B2 (priority 2017, dated 2022).

The chains behind the UniProt entries cited, without tags or fusion partners. Where a name states a change or a piece, a line headed by the entry shows the natural chain unless it says otherwise.
UniProt P41145: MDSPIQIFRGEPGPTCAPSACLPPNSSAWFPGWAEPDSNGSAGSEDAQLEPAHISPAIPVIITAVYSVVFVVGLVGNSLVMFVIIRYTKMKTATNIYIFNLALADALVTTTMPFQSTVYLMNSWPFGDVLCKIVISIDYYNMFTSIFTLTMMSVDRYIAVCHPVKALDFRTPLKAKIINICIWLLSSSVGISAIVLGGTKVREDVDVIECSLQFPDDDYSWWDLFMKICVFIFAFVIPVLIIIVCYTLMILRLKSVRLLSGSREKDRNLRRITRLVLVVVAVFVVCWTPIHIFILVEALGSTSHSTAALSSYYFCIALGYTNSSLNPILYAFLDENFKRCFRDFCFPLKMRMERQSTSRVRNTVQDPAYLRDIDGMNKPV

Target: KOR (Homo sapiens, UniProt P41145)

What does the source list for “cyclo [CJ-15,208, cyclo [Phe-D-Pro-Phe-Trp]]”?
selectivity for KOR over MOR and DOR: selective activity against the kappa opioid receptor (KOR) over mu opioid receptors (MOR) and delta opioid receptors (DOR); KOR antagonism in vitro (in vitro): antagonize KOR in vitro
